{"source": "patent US20150072968A1", "about": "“Treating Infections with Ceftolozane/Tazobactam in Subjects Having Impaired Renal Function” (Calixa Therapeutics, Inc., priority 2013, published 2015)", "test_system": "Escherichia coli", "experiment": "Phase 3 cUTI study, per pathogen microbiological eradication", "assay_type": "in vivo", "details": "ME population", "excerpt": "The primary efficacy endpoint was the composite microbiological and clinical cure response at the test-of-cure (TOC) visit in the microbiologically modified intent-to-treat (mMITT) population, which included all patients who received study medication and had at least 1 baseline uropathogen. The key secondary efficacy endpoint was the composite microbiological and clinical cure response at the TOC visit in the microbiologically evaluable (ME) population, which included protocol-adherent mMITT patients with a urine culture at the TOC visit.", "data": [{"smiles": "C[C@H]1COc2c(N3CCN(C)CC3)c(F)cc3c(=O)c(C(=O)O)cn1c23", "note": "[Levofloxacin]", "values": [{"measurement": "Per pathogen microbiological eradication rate at TOC visit", "setting": "Escherichia coli (CTX-M-14/15 ESBL producing)", "value": "13/25 (52.0) %"}, {"measurement": "Per pathogen microbiological eradication rate at TOC visit", "setting": "Escherichia coli (ESBL-producing)", "value": "18/36 (50) %"}]}]}
